# Data reported in article PMC3082441 (Journal of medicinal chemistry, 2008).
# Tested on: endogenous tmACs expressed in HEK293T cells
# Type: biochemical, mammalian
compound,measurement,value
"O=C(O)c1cc2c(cc1S(=O)(=O)O)C1C(C3C2C2(Cl)C(Cl)=C(Cl)C3(Cl)C2(Cl)Cl)C2(Cl)C(Cl)=C(Cl)C1(Cl)C2(Cl)Cl (stereo not shown) [Compound 3, 1,2,3,4,5,6,7,8,13,13,14,14-dodecachloro-1,4,4a,4b,5,8,8a, 12b-octahydro-11-sulfo-1,4:5,8-dimethanotriphenylene-10-carboxylic acid]",Inhibition of forskolin-stimulated AC activity in HEK293T whole cell extracts,inhibited this activity only slightly
